# Yeast mating assay B: variants of the scFv Ab-14

Target peptide (SARS-CoV-2 spike, HR2 region): PDVDLGDISGINAS

Ab-14 is the parent antibody, in scFv form: VH, then a (GGGGS)3 linker, then VL. The heavy chain is unchanged in all variants.
VH: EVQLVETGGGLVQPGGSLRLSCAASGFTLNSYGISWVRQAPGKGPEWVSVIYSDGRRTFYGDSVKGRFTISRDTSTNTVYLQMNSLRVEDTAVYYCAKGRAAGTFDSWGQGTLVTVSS
VL: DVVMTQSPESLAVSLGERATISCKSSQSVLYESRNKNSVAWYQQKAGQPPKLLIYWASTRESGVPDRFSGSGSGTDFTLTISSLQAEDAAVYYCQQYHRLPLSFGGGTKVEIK

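Phage display of a naive human antibody library on the peptide gave the parent. These sequences belong to a second round, designed from the earlier measurements on random variants of the parent. Several design methods are mixed in this list. The assay is AlphaSeq: two haploid yeast populations carry antibody and antigen on their surface. After mating in shaken culture at 30 °C for 16 h, diploids were selected and their barcode pairs sequenced. Read counts were normalised to the haploid input and turned into Kd by a linear fit to BCL2-family pairs of known affinity, for each replicate. There are six technical replicates.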

The parent's light chain CDRs are KSSQSVLYESRNKNSVA, WASTRES, QQYHRLPLS; each variant's own CDRs replace them letter for letter.
This list holds designs with more than six substitutions.
Values are apparent Kd, the geometric mean of the replicates that gave a signal; lower means stronger binding.
"no signal" marks a missing value. The strain was present, yet no cells mated with the target were sequenced in any replicate, which points to weak or no binding.

Variant KFSQSNGYEQRNKNSVA | EASQREQ | QQYHRLPLS gave 1.1 nM (6 of 6 replicates). Variant KSSQSTLYESGMKNSVA | NASKRMD | QQYHRLPLS showed 1.5 nM (6 of 6 replicates). With KLSMQVMMWSRNTNSVA | SANTREE | QQYHRLPLS the result was 2.9 nM (6 of 6 replicates). Variant MISDMGLHDMRIQNSVA | NNSTREA | QQYDRLPLS showed 1.7 µM (1 of 6 replicates). Variant QINLQGLSAALNNRAVA | AKNLRVD | QQYNRLPLS gave 7.3 nM (6 of 6 replicates). Variant KVGLVTNGISFSKNSVA | EQSTRED | QQYDRLPLS showed 2.0 nM (6 of 6 replicates). With KLSMEPLVEWNRAQAIA | DAHMSYI | QQYFHLPLY the result was no signal (0 of 6 replicates).

With KISQMVRVGATHSNSIA | EEQTRAK | QQYHRLPLA the result was 11 nM (6 of 6 replicates). With KFSGSHLYESRMGNSVA | NASQRES | QQYHRLPLS the result was 840 pM (6 of 6 replicates). Variant KIQQSYLYEDRAKNSVA | NASTRLW | QQYHRLPLS gave 12 nM (5 of 6 replicates). For KISMTSENQLKNRNSVA | ELVTRMS | QQYNRLPLS, the assay gave 3.2 nM (6 of 6 replicates). Variant KFVQSDDYESRNKNNVA | QASQREQ | QQYHRLPLS gave 1.5 nM (6 of 6 replicates). Variant NLNDSDMYAQIMTDNIA | QDTQRNE | QQYAKLPLS showed no signal (0 of 6 replicates). With KISQMIRVGSTASNSIA | EEVTRAK | QQYHRLPLA the result was 4.7 nM (6 of 6 replicates).

For IVSQLMLWGMHAKNSIA | EAQTRLN | QQYERLPLF, the assay gave no signal (0 of 6 replicates). For QITFVQQYDAPNTYNVA | DATVSGR | QQYSQLPLI, the assay gave 42 nM (6 of 6 replicates). With KLSMITGHMQVEKNNVA | EMETREN | QQYDRLPLS the result was 7.6 nM (6 of 6 replicates). Variant NMNVGANFGKEQEQAIA | DVEDRES | QQYARLPLT gave 24 nM (6 of 6 replicates). Variant KISGQYRYEQLSKNSIA | EAQTRLK | QQYHRLPLS showed 2.3 nM (6 of 6 replicates). Variant MIYGAERELGRAANSIA | DNVTRYN | QQYERLPLS showed 120 nM (1 of 6 replicates). Variant KVSEFMRGLMMRTDSIA | DNETRNS | QQYDRLPLS gave 67 nM (6 of 6 replicates).

For HMSQVTMYGYWNKNSVA | QTSTREP | QQYDRLPLS, the assay gave 350 nM (6 of 6 replicates). With QISMMMNLSMHGVNNVA | QMETREK | QQYDRLPLS the result was 440 nM (5 of 6 replicates). With KVDQWVEYGSRNKNSVA | SASQRFS | QQYHRLPLS the result was 11 nM (6 of 6 replicates). For MISQLYNIGTFAINSVA | QASLRCN | QQYDRLPLM, the assay gave no signal (0 of 6 replicates). With KVEGSHLYESRNGNSVA | NASTRED | QQYHRLPLS the result was 2.3 nM (6 of 6 replicates). For KVSQGGPYEQRQKNSVA | NASQRES | QQYHRLPLS, the assay gave 1.0 nM (6 of 6 replicates). Variant KLPQSEPYESRCFNSVA | NASTRCS | QQYHRLPLS showed 1.9 nM (6 of 6 replicates).

With MFSQLTYTGSRTRNAVA | QASTREN | QQYHHLPLS the result was 9.0 nM (6 of 6 replicates). For TISQSFQMENQFKNSVA | QASTRES | QCYDRLPLS, the assay gave 14 nM (6 of 6 replicates). With KLAQGIYEPWRHSHNIA | EASHVCD | QQYARLPLE the result was 7.4 nM (6 of 6 replicates). For KLYQMTGIESHAKNSLA | DANRRED | QQYDRLPLS, the assay gave 1.5 nM (6 of 6 replicates). Variant RIQMGDLEGRTAWNNIA | NMEELYR | QQYVRLPLY showed 4.5 nM (6 of 6 replicates). For AISEHAFYGQRDENGIA | GADVRAK | QQYWRLPLT, the assay gave 6.4 nM (6 of 6 replicates). For SLYENYQNGGQHTNAVA | DANQMMR | QHYNRLPLA, the assay gave 2.0 nM (6 of 6 replicates).

From the list, the first 3 with no signal in any replicate:

CDR-L1,CDR-L2,CDR-L3,apparent Kd,replicates with signal
KLSMEPLVEWNRAQAIA,DAHMSYI,QQYFHLPLY,no signal,0/6
NLNDSDMYAQIMTDNIA,QDTQRNE,QQYAKLPLS,no signal,0/6
IVSQLMLWGMHAKNSIA,EAQTRLN,QQYERLPLF,no signal,0/6

The range of this assay differs from that of the first round, and the authors advise against merging the two.
Three control strains display no target. For all light chain designs, 4% of the pairings with them gave a signal, with a median of 430 nM and one signal in twenty below 38 nM, so weak values seen in few replicates may be background.
The authors averaged sequences with at least three values out of six and counted those with two or fewer as poor binders.
Of ten entries with the parent sequence, four were seen in most replicates (averages 2.2 nM to 240 nM), three in one and three in none, so single entries are noisy.

Values reported by Li et al. 2023, doi:10.1038/s41467-023-39022-2 (FLAb copy).